The source of these data is patent US12152019B2, “Arylalkyl pyrazole compounds as indoleamine 2,3-dioxygenase inhibitors” (Merck Sharp & Dohme LLC, priority 2018, dated 2024).

By UniProt entry, the sequences of proteins in these tests, tags left out.
UniProt P14902, whole entry: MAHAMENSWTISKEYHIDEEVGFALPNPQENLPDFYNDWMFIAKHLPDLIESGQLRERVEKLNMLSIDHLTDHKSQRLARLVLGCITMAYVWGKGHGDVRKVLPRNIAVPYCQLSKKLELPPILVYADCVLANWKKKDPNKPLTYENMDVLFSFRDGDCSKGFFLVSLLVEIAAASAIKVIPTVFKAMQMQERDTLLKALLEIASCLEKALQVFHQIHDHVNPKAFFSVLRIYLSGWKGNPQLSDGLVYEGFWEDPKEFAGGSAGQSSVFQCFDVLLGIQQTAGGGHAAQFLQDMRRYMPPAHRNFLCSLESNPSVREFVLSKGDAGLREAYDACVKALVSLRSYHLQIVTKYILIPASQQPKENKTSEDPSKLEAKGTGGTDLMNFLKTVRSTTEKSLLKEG

Usually IC50 stands for the concentration at which inhibition is half-maximal.

For this test, the target named is IDO1 (Homo sapiens, UniProt P14902). The test is described as follows: IDO1 Cellular Assay in HeLa Cells Stimulated with IFNγ. It counts as cell-based. To be noted: HeLa cells stimulated with IFNγ 100 ng/mL, 300 uM L-tryptophan, about 48 hours, fluorescence readout; read-out: HeLa Cell Potency, IC50.
On to `CC(=O)NC1CCN(C(=O)c2nn(CC[C@H]3CC[C@@H](Oc4nccc(C)c4C#N)CC3)c3c2CCC3)CC1` [Example 66, N-(1-(1-(2-((1s,4s)-4-((3-cyano-4-methylpyridin-2-yl)oxy)cyclohexyl)ethyl)-1,4,5,6-tetrahydrocyclopenta[c]pyrazole-3-carbonyl)piperidin-4-yl)acetamide], for which the half-maximal inhibitory concentration (IC50) amounted to 0.000642 µM.

In the case of `Cc1ccc(Cl)c(O[C@H]2CC[C@@H](CCn3nc(C(=O)N4CCN(C(=O)CO)CC4)c4c3CCC4)CC2)c1` [Example 57, 1-(4-(1-(2-((1s,4s)-4-(2-chloro-5-methylphenoxy)cyclohexyl)ethyl)-1,4,5,6-tetrahydrocyclopenta[c]pyrazole-3-carbonyl)piperazin-1-yl)-2-hydroxyethan-1-one], the IC50 was determined as 0.00261 µM. With `Cc1c(F)ccc(N2CCC(CCn3nc(C(=O)N4CC[C@@H](O)[C@@H](F)C4)c4c3CCC4)CC2)c1C` (stereo in doubt) [Example 13, [1-[2-[1-(4-fluoro-2,3-dimethyl-phenyl)piperidin-1-ium-4-yl]ethyl]-5,6-dihydro-4H-cyclopenta[c]pyrazol-3-yl]-(3-fluoro-4-hydroxy-1-piperidyl)methanone], the half-inhibitory concentration (IC50) is 0.0246 µM. For `Cc1cccnc1O[C@H]1CC[C@@H](CCn2nc(C(=O)N3CCC(O)CC3)c3c2C[C@@H](C(F)F)CC3)CC1` [Example 84, [(6S)-6-(difluoromethyl)-1-(2-{cis-4-[(3-methylpyridin-2-yl)oxy]cyclohexyl}ethyl)-4,5,6,7-tetrahydro-1H-indazol-3-yl](4-hydroxypiperidin-1-yl)methanone], the IC50 came out at 0.0226 µM.

`CC(=O)NC1CCN(C(=O)c2nn(CCC3CCN(c4cc(C(F)(F)F)ccn4)CC3)c3c2CCCC3)CC1` [Example 37, N-[1-[1-[2-[1-[4-(trifluoromethyl)-2-pyridyl]-4-piperidyl]ethyl]-4,5,6,7-tetrahydroindazole-3-carbonyl]-4-piperidyl]acetamide]: the IC50 amounted to 0.00502 µM. Under `Cc1cccnc1O[C@H]1CC[C@H](CCn2nc(C(=O)N3CC[C@H](O)[C@H](F)C3)c3c2C[C@H]2C[C@@H]32)CC1` [Example 82, [(3R,4S)-3-fluoro-4-hydroxypiperidin-1-yl] [(3bR,4aR)-1-(2-{trans-4-[(3-methylpyridin-2-yl)oxy]cyclohexyl}ethyl)-3b,4,4a,5-tetrahydro-1H-cyclopropa[3,4]cyclopenta [1,2-c]pyrazol-3-yl] methanone] stands 0.143 µM. With `CC(=O)NC1CCN(C(=O)c2nn(CCC3CCN(c4ccc(Cl)nn4)CC3)c3c2CCCC3)CC1` [Example 33, N-[1-[1-[2-[1-(6-chloropyridazin-3-yl)-4-piperidyl]ethyl]-4,5,6,7-tetrahydroindazole-3-carbonyl]-4-piperidyl]acetamide], the IC50 stood at 0.0685 µM. Under `CC(=O)NC1CCN(C(=O)c2nn(CCC3CCN(c4ncc(F)cc4F)CC3)c3c2CCCC3)CC1` [Example 24, N-[1-[1-[2-[1-(3,5-difluoro-2-pyridyl)-4-piperidyl]ethyl]-4,5,6,7-tetrahydroindazole-3-carbonyl]-4-piperidyl]acetamide] stands 0.00256 µM.

As for `CC(=O)NC1CCN(C(=O)c2nn(CC[C@H]3CC[C@@H](Oc4cnc(C)nc4C)CC3)c3c2CCC3)CC1` [Example 68, N-(1-(1-(2-((1s,4s)-4-((2,4-dimethylpyrimidin-5-yl)oxy)cyclohexyl)ethyl)-1,4,5,6-tetrahydrocyclopenta[c]pyrazole-3-carbonyl)piperidin-4-yl)acetamide], the IC50 stood at 0.00152 µM. The figure for `CC(=O)NC1CCN(C(=O)c2nn(C[C@H]3C[C@H](Oc4ccc(Cl)cn4)CCO3)c3c2CC(F)(F)CC3)CC1` [Example 78, 1-{3-[4-(acetylamino)piperidine-1-carbonyl]-5,5-difluoro-4,5,6,7-tetrahydro-1H-indazol-1-yl}-2,6-anhydro-4-O-(5-chloropyridin-2-yl)-1,3,5-trideoxy-D-erythro-hexitol] is 0.315 µM. Under `Cc1c(F)ccc(N2CCC(CCn3nc(C(=O)N4CCC(F)(CO)CC4)c4c3CCC4)CC2)c1C` [Example 8, (1-(2-(1-(4-fluoro-2,3-dimethylphenyl)piperidin-4-yl)ethyl)-1,4,5,6-tetrahydrocyclopenta[c]pyrazol-3-yl)(4-fluoro-4-(hydroxymethyl)piperidin-1-yl)methanone] stands 0.00435 µM; under `CC(=O)NC1CCN(C(=O)c2nn(CCC3CCN(c4ncccc4C#N)CC3)c3c2CCCC3)CC1` [Example 39, N-[1-[1-[2-[1-(3-cyano-2-pyridyl)-4-piperidyl]ethyl]-4,5,6,7-tetrahydroindazole-3-carbonyl]-4-piperidyl]acetamide], 0.0219 µM; under `CC(=O)NC1CCN(C(=O)c2nn(CCC3CCN(c4cc(C#N)ccn4)CC3)c3c2CCCC3)CC1` [Example 40, N-[1-[1-[2-[1-(4-cyano-2-pyridyl)-4-piperidyl]ethyl]-4,5,6,7-tetrahydroindazole-3-carbonyl]-4-pipridyl]acetamide], 0.0229 µM. `O=C(c1nn(CCC2CCN(c3ccnc4ccc(F)cc34)CC2)c2c1CCC2)N1CCC(O)CC1` [Example 6, [1-[2-[1-(6-fluoroquinolin-1-ium-4-yl)-4-piperidyl]ethyl]-5,6-dihydro-4H-cyclopenta[c]pyrazol-3-yl]-(4-hydroxy-1-piperidyl)methanone]: the IC50 is 0.111 µM. Regarding `O=C(c1nn(CCC2CCN(c3cccc(F)c3)CC2)c2c1CCC2)N1CCC(O)CC1` [Example 2, [1-[2-[1-(3-fluorophenyl)piperidin-1-ium-4-yl]ethyl]-5,6-dihydro-4H-cyclopenta[c]pyrazol-3-yl]-(4-hydroxy-1-piperidyl)methanone], the half-maximal inhibitory concentration (IC50) was 0.0327 µM. The figure for `Cc1cccc(C2CCC(CCn3nc(C(=O)N4CCC(O)CC4)c4c3CCC4)CC2)c1C` (single isomer, unassigned) [Example 96, (1-(2-(4-(2,3-dimethylphenyl)cyclohexyl)ethyl)-1,4,5,6-tetrahydrocyclopenta[c]pyrazol-3-yl)(4-hydroxypiperidin-1-yl)methanone] is 0.00262 µM; for `Cc1c(Cl)cccc1OC1CCC(Cn2nc(C(=O)N3C[C@@H](C)O[C@@H](C)C3)c3c2CCC3)CC1` (single isomer, unassigned) [Example 56] it is 0.0212 µM; for `Cc1cccnc1O[C@H]1CC[C@@H](CCn2nc(C(=O)N3CCN(C(=O)CO)CC3)c3c2C[C@H]2C[C@@H]32)CC1` [Example 94, 2-hydroxy-1-(4-((3bR,4aR)-1-(2-((1s,4S)-4-((3-methylpyridin-2-yl)oxy)cyclohexyl)ethyl)-3b,4,4a,5-tetrahydro-1H-cyclopropa[3,4]cyclopenta[1,2-c]pyrazole-3-carbonyl)piperazin-1-yl)ethan-1-one] it is 0.00184 µM.

For `CC(=O)NC1CCN(C(=O)c2nn(CCN3CCN(c4cccc(Cl)c4C)CC3)c3c2[C@@H]2C[C@@H]2C3)CC1` [Example 102, N-(1-((3bR,4aR)-1-(2-(4-(3-chloro-2-methylphenyl)piperazin-1-yl)ethyl)-3b,4,4a,5-tetrahydro-1H-cyclopropa[3,4]cyclopenta[1,2-c]pyrazole-3-carbonyl)piperidin-4-yl)acetamide], the concentration for half-maximal inhibition (IC50) stood at 0.00206 µM. With `O=C(c1nn(CCC2CCN(c3cccc(F)c3F)CC2)c2c1CCC2)N1CCC(O)CC1` [Example 5, [1-[2-[1-(2,3-difluorophenyl)piperidin-1-ium-4-yl]ethyl]-5,6-dihydro-4H-cyclopenta[c]pyrazol-3-yl]-(4-hydroxy-1-piperidyl)methanone], the IC50 worked out at 0.0938 µM. The figure for `O=C(c1nn(CCC2CCN(c3ccncc3C(F)(F)F)CC2)c2c1CCC2)N1CCC(O)CC1` [Example 7, (4-hydroxy-1-piperidyl)-[1-[2-[1-[3-(trifluoromethyl)pyridin-1-ium-4-yl]-4-piperidyl]ethyl]-5,6-dihydro-4H-cyclopenta[c]pyrazol-3-yl]methanone] is 0.125 µM. For `CC(=O)NC1CCN(C(=O)c2nn(CCC3CCN(c4cncc(C)n4)CC3)c3c2CCCC3)CC1` [Example 31, N-[1-[1-[2-[1-(6-methylpyrazin-2-yl)-4-piperidyl]ethyl]-4,5,6,7-tetrahydroindazole-3-carbonyl]-4-piperidyl]acetamide], the 50% inhibitory concentration (IC50) amounted to 0.0415 µM.

Regarding `CC(=O)NC1CCN(C(=O)c2nn(CCC3CCN(c4ncc(C(F)(F)F)cc4Cl)CC3)c3c2CCCC3)CC1` [Example 36, N-[1-[1-[2-[1-[3-chloro-5-(trifluoromethyl)-2-pyridyl]-4-piperidyl]ethyl]-4,5,6,7-tetrahydroindazole-3-carbonyl]-4-piperidyl]acetamide], the IC50 turned out to be 0.00414 µM. Under `CC(=O)NC1CCN(C(=O)c2nn(CCC3CCN(c4ccc(F)cc4C)CC3)c3c2CCCC3)CC1` [Example 23, N-[1-[1-[2-[1-(4-fluoro-2-methyl-phenyl)-4-piperidyl]ethyl]-4,5,6,7-tetrahydroindazole-3-carbonyl]-4-piperidyl]acetamide] stands 0.00179 µM; under `Cc1cccnc1O[C@H]1CC[C@@H](CCn2nc(C(=O)N3CCC(O)CC3)c3c2C[C@H](C(F)F)CC3)CC1` [Example 87, [(6R)-6-(difluoromethyl)-1-(2-{cis-4-[(3-methylpyridin-2-yl)oxy]cyclohexyl}ethyl)-4,5,6,7-tetrahydro-1H-indazol-3-yl](4-hydroxypiperidin-1-yl)methanone], 0.012 µM; under `CC(=O)NC1CCN(C(=O)c2nn(CCC3CCN(c4ccc(F)c(F)c4C)CC3)c3c2CCCC3)CC1` [Example 18, N-[1-[1-[2-[1-(3,4-difluoro-2-methyl-phenyl)-4-piperidyl]ethyl]-4,5,6,7-tetrahydroindazole-3-carbonyl]-4-piperidyl]acetamide], 0.00152 µM. The figure for `Cc1c(F)ccc(N2CCC(CCn3nc(C(=O)N4CCC(O)(CF)CC4)c4c3CCC4)CC2)c1C` [Example 9, [1-[2-[1-(4-fluoro-2,3-dimethyl-phenyl)piperidin-1-ium-4-yl]ethyl]-5,6-dihydro-4H-cyclopenta[c]pyrazol-3-yl]-[4-(fluoromethyl)-4-hydroxy-1-piperidyl]methanone] is 0.00839 µM.
